Experimental data: PubChem BioAssay (NCI)
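Growth conditions: 96-well plates. Treatment: test compound, 48 hours, 5 concentrations. Analysis: linear interpolation between bracketing concentrations; unreached endpoints set to highest concentration. TGI is the concentration that stops growth completely.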

Columns and labels:
Assay in all cases: NCI anticancer screen, dose series, 48 h
786-0 renal = test system: 786-0 renal
A498 renal = test system: A498 renal
A549 NSCLC = test system: A549 NSCLC
ACHN renal = test system: ACHN renal
CCRF-CEM leukemia = test system: CCRF-CEM leukemia
COLO 205 colon = test system: COLO 205 colon
DU-145 prostate = test system: DU-145 prostate
EKVX NSCLC = test system: EKVX NSCLC
HCC-2998 colon = test system: HCC-2998 colon
HCT-116 colon = test system: HCT-116 colon
HL-60(TB) leukemia = test system: HL-60(TB) leukemia
HOP-62 NSCLC = test system: HOP-62 NSCLC
HOP-92 NSCLC = test system: HOP-92 NSCLC
HT29 colon = test system: HT29 colon
IGROV1 ovarian = test system: IGROV1 ovarian
K-562 leukemia = test system: K-562 leukemia
KM12 colon = test system: KM12 colon
LOX IMVI melanoma = test system: LOX IMVI melanoma
M14 melanoma = test system: M14 melanoma
MALME-3M melanoma = test system: MALME-3M melanoma
MCF7 breast = test system: MCF7 breast
MDA-MB-231 breast = test system: MDA-MB-231 breast
MDA-MB-435 = test system: MDA-MB-435
MOLT-4 leukemia = test system: MOLT-4 leukemia
NCI-H226 lung = test system: NCI-H226 lung
NCI-H23 lung = test system: NCI-H23 lung
NCI-H460 lung = test system: NCI-H460 lung
NCI/ADR-RES ovarian = test system: NCI/ADR-RES ovarian
OVCAR-4 ovarian = test system: OVCAR-4 ovarian
OVCAR-5 ovarian = test system: OVCAR-5 ovarian
OVCAR-8 ovarian = test system: OVCAR-8 ovarian
RPMI-8226 leukemia = test system: RPMI-8226 leukemia
RXF 393 renal = test system: RXF 393 renal
SF-268 CNS = test system: SF-268 CNS
SF-295 CNS = test system: SF-295 CNS
SF-539 CNS = test system: SF-539 CNS
SK-MEL-28 melanoma = test system: SK-MEL-28 melanoma
SK-MEL-5 melanoma = test system: SK-MEL-5 melanoma
SK-OV-3 ovarian = test system: SK-OV-3 ovarian
SN12C renal = test system: SN12C renal
SNB-19 CNS = test system: SNB-19 CNS
SNB-75 CNS = test system: SNB-75 CNS
SR leukemia = test system: SR leukemia
SW-620 colon = test system: SW-620 colon
T-47D breast = test system: T-47D breast
TK-10 renal = test system: TK-10 renal
U251 CNS = test system: U251 CNS
UACC-257 melanoma = test system: UACC-257 melanoma
UACC-62 melanoma = test system: UACC-62 melanoma
UO-31 renal = test system: UO-31 renal

Measured: TGI

O=C1NC(=NC2CCCCC2)C2(CCN(CCc3ccccc3)CC2)N1c1ccccc1
> 100 µM: 786-0 renal | A498 renal | A549 NSCLC | ACHN renal | CCRF-CEM leukemia | COLO 205 colon | DU-145 prostate | EKVX NSCLC | HCC-2998 colon | HCT-116 colon | HL-60(TB) leukemia | HOP-62 NSCLC | HOP-92 NSCLC | HT29 colon | IGROV1 ovarian | K-562 leukemia | KM12 colon | LOX IMVI melanoma | M14 melanoma | MALME-3M melanoma | MCF7 breast | MDA-MB-231 breast | MDA-MB-435 | MOLT-4 leukemia | NCI-H226 lung | NCI-H23 lung | NCI-H460 lung | NCI/ADR-RES ovarian | OVCAR-4 ovarian | OVCAR-5 ovarian | OVCAR-8 ovarian | RPMI-8226 leukemia | RXF 393 renal | SF-268 CNS | SF-295 CNS | SF-539 CNS | SK-MEL-28 melanoma | SK-MEL-5 melanoma | SK-OV-3 ovarian | SN12C renal | SNB-19 CNS | SNB-75 CNS | SR leukemia | SW-620 colon | T-47D breast | TK-10 renal | U251 CNS | UACC-257 melanoma | UACC-62 melanoma | UO-31 renal
